Test results taken from paper PMC3366986, “On the Mechanism of Action of SJ-172550 in Inhibiting the Interaction of MDM4 and p53” (PLoS ONE, 2012).

Protein sequences, listed by entry. Tags and fused reporters are not part of them. Lines headed by an entry give the natural chain unless they say otherwise; changes in a name come on top. Residues count along the entry.
UniProt O15151, whole entry: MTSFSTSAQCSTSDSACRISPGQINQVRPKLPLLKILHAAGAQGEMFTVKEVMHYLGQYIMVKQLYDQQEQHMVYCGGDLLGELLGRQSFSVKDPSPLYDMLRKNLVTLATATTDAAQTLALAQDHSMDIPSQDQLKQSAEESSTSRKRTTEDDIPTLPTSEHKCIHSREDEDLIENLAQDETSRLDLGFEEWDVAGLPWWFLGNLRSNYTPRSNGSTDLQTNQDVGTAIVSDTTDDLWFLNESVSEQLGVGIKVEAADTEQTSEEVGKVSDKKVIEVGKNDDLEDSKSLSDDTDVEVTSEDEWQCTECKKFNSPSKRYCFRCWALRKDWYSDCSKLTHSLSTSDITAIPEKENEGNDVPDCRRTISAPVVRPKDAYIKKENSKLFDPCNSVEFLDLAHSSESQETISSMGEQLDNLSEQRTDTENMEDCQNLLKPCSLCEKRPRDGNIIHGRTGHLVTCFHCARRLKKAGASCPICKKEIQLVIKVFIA
UniProt Q00987, whole entry: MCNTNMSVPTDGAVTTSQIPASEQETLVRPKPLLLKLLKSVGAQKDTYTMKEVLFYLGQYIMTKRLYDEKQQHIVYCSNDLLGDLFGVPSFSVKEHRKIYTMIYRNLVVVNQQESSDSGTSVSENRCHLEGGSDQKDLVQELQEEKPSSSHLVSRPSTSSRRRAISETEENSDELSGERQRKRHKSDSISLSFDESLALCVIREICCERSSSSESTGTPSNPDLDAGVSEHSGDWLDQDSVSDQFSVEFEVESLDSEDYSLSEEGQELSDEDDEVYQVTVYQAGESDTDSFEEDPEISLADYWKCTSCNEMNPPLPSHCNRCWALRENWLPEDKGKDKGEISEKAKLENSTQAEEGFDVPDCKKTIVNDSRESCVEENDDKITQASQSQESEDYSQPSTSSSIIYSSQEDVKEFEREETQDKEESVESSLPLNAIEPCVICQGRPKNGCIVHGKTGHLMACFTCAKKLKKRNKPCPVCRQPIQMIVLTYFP
UniProt Q00987, 18-125 C77V limits assumed: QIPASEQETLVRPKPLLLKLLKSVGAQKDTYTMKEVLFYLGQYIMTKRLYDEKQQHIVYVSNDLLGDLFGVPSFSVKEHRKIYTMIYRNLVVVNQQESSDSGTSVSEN

Tests used:
MDMX = MDMX (Homo sapiens, UniProt O15151); test: fluorescence polarization p53 peptide exclusion assay, Mdmx; conditions: read-out: MdmX Ki; ND = compound does not noticeably block interaction with p53 peptide
Mdm2 = Mdm2 (Homo sapiens, UniProt Q00987); test: fluorescence polarization p53 peptide exclusion assay, Mdm2; conditions: read-out: Mdm2 Ki; ND = compound does not noticeably block interaction with p53 peptide
hMDM2(18–125)C77V = hMDM2(18–125)C77V (Homo sapiens, UniProt Q00987, C77V); test: inhibition of p53 peptide binding to MDM2 cysteine mutant; conditions: C77A mutant of MDM2; Figure S12

Ki (MDMX) [µM] | Ki (Mdm2) [µM] | Structure (SMILES) | sensitivity of mutant in blocking the interaction with p53 peptide (hMDM2(18–125)C77V)
7.24 |  | CCOC(=O)COc1c(Cl)cc(C=C2C(=O)N(c3cc(Cl)ccc3Cl)N=C2C)cc1OC | 
117 | 43.5 | CCOc1cc(C=C2C(=O)N(c3ccc(Cl)cc3)N=C2C)cc(Cl)c1O | 
48.9 |  | CCOC(=O)COc1ccc(C=C2C(=O)N(c3cccc(C(F)(F)F)c3)N=C2C)cc1OCC | 
17.7 |  | COc1cc(C=C2C(=O)N(c3ccccc3)N=C2C)cc(Cl)c1OCCOc1cc(C)ccc1C | 
1.6 |  | CCOc1cc(C=C2C(=O)N(c3cccc(C(F)(F)F)c3)N=C2C)cc(Cl)c1OCC | 
5.25 | 2.57 | CCOC(=O)COc1c(Br)cc(C=C2C(=O)N(c3ccccc3)N=C2C)cc1OCC | 
2.46 |  | CCOc1cc(C=C2C(=O)N(c3cccc(Cl)c3)N=C2C)cc(Cl)c1OCC | 
0.99 | 5.04 | COc1cc(C=C2C(=O)NN(c3cccc(Br)c3)C2=O)cc(Br)c1OC(C)=O | 
36.5 | 33.8 | CCOc1cc(C=C2C(=O)N(c3ccccc3)N=C2C)c(Br)cc1OCC(=O)OC | 
164 |  | COC(=O)COc1ccc(C=C2C(=O)N(c3ccccc3)N=C2C)cc1 | 
47.1 | 41.6 | CCOc1cc(C=C2C(=O)N(c3ccccc3)N=C2C)ccc1OCC(=O)OC | 
2.35 |  | CCOc1cc(C=C2C(=O)N(c3ccccc3)N=C2C)cc(Cl)c1OC(=O)c1cccs1 | 
6.66 | 30 | CCOc1cc(C=C2C(=O)N(c3ccccc3)N=C2C)cc(Cl)c1OCC | 

Structure (SMILES) | Ki (MDMX) [µM] | Ki (Mdm2) [µM] | sensitivity of mutant in blocking the interaction with p53 peptide (hMDM2(18–125)C77V)
COc1cc(C=C2C(=O)NN(c3cccc(Cl)c3)C2=O)cc(Cl)c1OC | 1.76 | 1.34 | Reduced sensitivity
